In ChEMBL document CHEMBL5214932, “A closer look at N2,6-substituted 1,3,5-triazine-2,4-diamines: Advances in synthesis and biological activities” (Eur J Med Chem, 2022):

Experiments:
HL-60 = assay: Cytotoxicity against human HL-60 cells assessed as cell growth inhibition; type: functional, cell-based
SK-OV-3 = assay: Cytotoxicity against human SK-OV-3 cells assessed as cell growth inhibition; type: functional, cell-based

Question: How did the IC50 (HL-60) turn out when `Cc1ccc(Cl)cc1-c1nc(N)nc(Nc2ccc(Br)cc2)n1` was run?
Answer: 60 nM

Question: What about the IC50 (SK-OV-3) of the same compound?
Answer: 60 nM
